## Measured affinities in a library of Ab-14 light chain variants

The measurements come from Engelhart et al. 2022 (doi:10.1038/s41597-022-01779-4) through the FLAb antibody collection.

Target peptide (SARS-CoV-2 spike, HR2 region): PDVDLGDISGINAS

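AAYL50 was designed without a model: most single CDR substitutions and a random sample of double and triple ones. The assay is AlphaSeq: two haploid yeast populations carry antibody and antigen on their surface. Binding brings cells together so that they mate, and sequencing counts the barcode pairs among the diploids. Each replicate has its own calibration line, from reference interactions of the BCL2 family. The assay was run in three technical replicates.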

Parent scFv Ab-14: VH joined to VL by three GGGGS repeats. Changes lie in the light chain CDRs alone.
VH: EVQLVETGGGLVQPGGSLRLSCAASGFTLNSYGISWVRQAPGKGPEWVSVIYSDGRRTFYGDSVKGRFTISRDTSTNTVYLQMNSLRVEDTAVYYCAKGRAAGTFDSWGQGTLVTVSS
VL: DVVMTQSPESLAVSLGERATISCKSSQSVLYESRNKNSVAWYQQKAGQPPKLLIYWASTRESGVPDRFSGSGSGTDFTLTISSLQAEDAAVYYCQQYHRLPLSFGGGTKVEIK

Each variant's VL is given in full.
Every variant below is changed at E61 of the VL (sequential numbering).
Kd is apparent (estimated from mating counts) and averaged on the log scale over replicates with a signal. Smaller is tighter.
A pair that was not seen in any replicate is written "nd"; this usually means weak binding, but a binder can also be missed.
Entries are sorted by rising average, undetected variants last.
Background: pairings of library AAYL50 with three empty control strains gave a value in 18% of cases (median 15 µM, 5th percentile 970 nM). Values in that range, when seen in few replicates, are hard to tell from nonspecific mating. The control count says in how many pairings with the empty strains this scFv gave a signal.

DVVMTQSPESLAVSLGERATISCKSSQSVLYESANKNSVAWYQQKAGQPPKLLIYWASTRASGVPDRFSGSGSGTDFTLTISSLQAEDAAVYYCFQYHRLPLSFGGGTKVEIK: 1.7 nM (3 of 3 replicates; controls 0 of 9).
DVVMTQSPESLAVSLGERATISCKSSQSVLYEDVNKNSVAWYQQKAGQPPKLLIYWASTRNSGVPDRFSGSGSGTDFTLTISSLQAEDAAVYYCQQYHRLPLSFGGGTKVEIK: 1.7 nM (3 of 3 replicates; controls 0 of 9).
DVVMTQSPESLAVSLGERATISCKSSQSVLYESHNKNSVAWYQQKAGQPPKLLIYWASTRISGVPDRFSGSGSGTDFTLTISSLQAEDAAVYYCQQYHRLPISFGGGTKVEIK: 6.7 nM (3 of 3 replicates; controls 2 of 9).
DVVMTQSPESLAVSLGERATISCKSSQSVLYESRNKNSVAWYQQKAGQPPKLLIYAASTRLSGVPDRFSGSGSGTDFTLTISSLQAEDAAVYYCQQYHRLPHSFGGGTKVEIK: 12 nM (3 of 3 replicates; controls 0 of 9).
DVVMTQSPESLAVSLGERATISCKSSQPVLYESRNKNSVAWYQQKAGQPPKLLIYWASCRNSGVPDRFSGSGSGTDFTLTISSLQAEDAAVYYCQQYHRLPLSFGGGTKVEIK: 15 nM (3 of 3 replicates; controls 2 of 9).
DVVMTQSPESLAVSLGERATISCKGSQSVLYESRNMNSVAWYQQKAGQPPKLLIYWASTRRSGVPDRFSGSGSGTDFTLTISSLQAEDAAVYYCQQYHRLPLSFGGGTKVEIK: 26 nM (3 of 3 replicates; controls 1 of 9).
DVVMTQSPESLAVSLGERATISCKSSQSVLYEVRNKNSVAWYQQKAGQPPKLLIYWADTRMSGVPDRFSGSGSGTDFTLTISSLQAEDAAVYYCQQYHRLPLSFGGGTKVEIK: 31 nM (3 of 3 replicates; controls 2 of 9).
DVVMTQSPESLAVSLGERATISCKWSQSVLYESRNKNSVAWYQQKAGQPPKLLIYWASTRDSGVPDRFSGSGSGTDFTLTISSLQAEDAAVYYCQQGHRLPLSFGGGTKVEIK: 47 nM (3 of 3 replicates; controls 3 of 9).
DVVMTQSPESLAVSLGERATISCKSSQSVLYESFNKNSVAWYQQKAGQPPKLLIYWASTRWSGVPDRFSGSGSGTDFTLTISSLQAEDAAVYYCQQFHRLPLSFGGGTKVEIK: 62 nM (3 of 3 replicates; controls 3 of 9).
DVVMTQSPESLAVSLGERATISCKSSQQVLYESRNKNSVAWYQQKAGQPPKLLIYWASTRHSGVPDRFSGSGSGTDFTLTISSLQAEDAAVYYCQQYHLLPLSFGGGTKVEIK: 67 nM (3 of 3 replicates; controls 2 of 9).
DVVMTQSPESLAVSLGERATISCKSSQSVLYESRNKCSVAWYQQKAGQPPKLLIYWASQRGSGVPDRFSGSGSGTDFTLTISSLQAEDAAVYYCQQYHRLPLSFGGGTKVEIK: 130 nM (3 of 3 replicates; controls 0 of 9).
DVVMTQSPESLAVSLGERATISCKSWQSVLYESRIKNSVAWYQQKAGQPPKLLIYWASTRHSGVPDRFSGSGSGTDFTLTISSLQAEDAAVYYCQQYHRLPLSFGGGTKVEIK: 140 nM (1 of 3 replicates; controls 0 of 9).
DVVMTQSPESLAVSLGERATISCKSSQSVLYLSRCKNSVAWYQQKAGQPPKLLIYWASTRSSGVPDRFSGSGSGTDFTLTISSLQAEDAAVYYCQQYHRLPLSFGGGTKVEIK: 570 nM (3 of 3 replicates; controls 0 of 9).
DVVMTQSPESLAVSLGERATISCKSSQSVLYESRNKNSVAWYQQKAGQPPKLLIYWASTRASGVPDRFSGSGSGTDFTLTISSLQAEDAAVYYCQHYHRIPLSFGGGTKVEIK: 1.2 µM (3 of 3 replicates; controls 1 of 9).
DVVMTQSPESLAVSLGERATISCNSYQSVLYESRNKNSVAWYQQKAGQPPKLLIYWASTRPSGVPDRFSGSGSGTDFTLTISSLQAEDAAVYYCQQYHRLPLSFGGGTKVEIK: 17 µM (1 of 3 replicates; controls 2 of 9).
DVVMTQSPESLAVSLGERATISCKSSQSVLYESRNKNQVAWYQQKAGQPPKLLIYWASTRPLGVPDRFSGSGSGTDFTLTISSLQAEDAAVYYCQQYHRLPLSFGGGTKVEIK: 30 µM (2 of 3 replicates; controls 2 of 9).
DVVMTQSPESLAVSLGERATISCKSSTSVLYESRYKNSVAWYQQKAGQPPKLLIYWASTRKSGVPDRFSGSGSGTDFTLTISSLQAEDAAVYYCQQYHRLPLSFGGGTKVEIK: 34 µM (2 of 3 replicates; controls 1 of 9).
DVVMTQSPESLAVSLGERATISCKSCQSVLYESRNKNSVAWYQQKAGQPPKLLIYWASTDKSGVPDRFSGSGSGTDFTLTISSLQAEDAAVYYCQQYHRLPLSFGGGTKVEIK: 46 µM (1 of 3 replicates; controls 0 of 9).
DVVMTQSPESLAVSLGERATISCKSSQSVLYEGRNKNSVAWYQQKAGQPPKLLIYWASTRYSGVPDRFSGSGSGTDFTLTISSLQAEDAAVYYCQQKHRLPLSFGGGTKVEIK: 81 µM (2 of 3 replicates; controls 5 of 9).
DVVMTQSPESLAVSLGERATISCKSSASVLYESRNKNSVAWYQQKAGQPPKLLIYWASTRSSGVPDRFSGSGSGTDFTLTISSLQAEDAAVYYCLQYHRLPLSFGGGTKVEIK: nd (0 of 3 replicates; controls 0 of 9).
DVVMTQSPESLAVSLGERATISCKSSQSVLYESRNKNIVAWYQQKAGQPPKLLIYWASTWTSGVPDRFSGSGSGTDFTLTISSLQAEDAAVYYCQQYHRLPLSFGGGTKVEIK: nd (0 of 3 replicates; controls 1 of 9).
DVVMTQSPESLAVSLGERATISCKGSQSVLYESRNKNSVSWYQQKAGQPPKLLIYWASTRGSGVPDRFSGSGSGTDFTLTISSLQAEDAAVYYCQQYHRLPLSFGGGTKVEIK: nd (0 of 3 replicates; controls 2 of 9).
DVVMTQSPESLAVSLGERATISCKSSQSVLYESRNKNSLAWYQQKAGQPPKLLIYWASTRLGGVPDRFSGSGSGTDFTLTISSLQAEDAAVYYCQQYHRLPLSFGGGTKVEIK: nd (0 of 3 replicates; controls 0 of 9).
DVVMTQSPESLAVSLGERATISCKSSQSVIWESRNKNSVAWYQQKAGQPPKLLIYWASTRHSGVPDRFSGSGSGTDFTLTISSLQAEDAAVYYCQQYHRLPLSFGGGTKVEIK: nd (0 of 3 replicates; controls 1 of 9).
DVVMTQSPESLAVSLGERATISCKSSQSVLYLSRNKNSVAWYQQKAGQPPKLLIYWASTRVSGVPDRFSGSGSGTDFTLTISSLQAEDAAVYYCQYYHRLPLSFGGGTKVEIK: nd (0 of 3 replicates; controls 0 of 9).

Top 3 of the variants detected in all replicates, tightest first:

{"VL": "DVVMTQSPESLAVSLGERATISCKSSQSVLYESANKNSVAWYQQKAGQPPKLLIYWASTRASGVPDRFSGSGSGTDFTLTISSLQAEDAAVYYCFQYHRLPLSFGGGTKVEIK", "Kd": "1.7 nM", "replicates with signal": "3/3", "empty controls": "0/9"}
{"VL": "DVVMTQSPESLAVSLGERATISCKSSQSVLYEDVNKNSVAWYQQKAGQPPKLLIYWASTRNSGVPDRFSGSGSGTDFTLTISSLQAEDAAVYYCQQYHRLPLSFGGGTKVEIK", "Kd": "1.7 nM", "replicates with signal": "3/3", "empty controls": "0/9"}
{"VL": "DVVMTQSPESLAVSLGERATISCKSSQSVLYESHNKNSVAWYQQKAGQPPKLLIYWASTRISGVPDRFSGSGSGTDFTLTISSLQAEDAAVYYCQQYHRLPISFGGGTKVEIK", "Kd": "6.7 nM", "replicates with signal": "3/3", "empty controls": "2/9"}